Measured values published in patent US20080057129A1, “Drug microparticles” (priority 2006, published 2008).

Experiment: Solubility of drug in menthol melt
Assay type: physicochemical
Details: 70 °C

SMILES: Cc1nc2n(c(=O)c1CCN1CCC(c3noc4cc(F)ccc34)CC1)CCCC2 [Risperidone]
- Solubility: 8.3 % w/w
